Measured values as given in paper PMC12120022, “Discovery and chemical optimisation of a potent, Bi-cyclic antimicrobial inhibitor of Escherichia coli PBP3” (Communications Biology, 2025).

Sequences of proteins named here, by UniProt entry; tags and fusion partners are left off. Residues count along the entry.
UniProt P0AD68, 60-588: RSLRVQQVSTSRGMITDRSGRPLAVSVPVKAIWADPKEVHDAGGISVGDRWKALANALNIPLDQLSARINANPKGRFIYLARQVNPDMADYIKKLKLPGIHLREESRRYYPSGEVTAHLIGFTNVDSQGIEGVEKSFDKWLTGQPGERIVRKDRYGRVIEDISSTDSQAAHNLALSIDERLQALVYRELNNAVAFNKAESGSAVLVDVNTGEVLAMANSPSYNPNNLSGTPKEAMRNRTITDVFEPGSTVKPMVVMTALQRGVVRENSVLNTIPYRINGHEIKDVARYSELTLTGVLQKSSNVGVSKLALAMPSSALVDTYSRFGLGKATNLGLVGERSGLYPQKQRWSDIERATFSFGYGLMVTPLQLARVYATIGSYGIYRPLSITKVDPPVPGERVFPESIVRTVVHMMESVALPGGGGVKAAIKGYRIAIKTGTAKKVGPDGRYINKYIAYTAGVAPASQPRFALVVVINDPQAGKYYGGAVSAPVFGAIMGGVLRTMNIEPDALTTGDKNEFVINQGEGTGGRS

Experiments:
Mouse blood stability = format: in vitro ADME, CD-1 mice; conditions: heparin as anticoagulant, 5 μM, 37 °C, SAR conjugates
Protocol: (§1) Stability assays were performed using freshly collected matrices from CD-1 mice, with anticoagulant as stated per dataset. Compound stocks in DMSO were tested at 5 μM final concentration (0.5% (v/v) DMSO). Compounds were incubated in blood or plasma at 37 °C for 24 h, with sampling at 0, 1, 2, 4, 6 and 24 h. Samples were prepared via protein precipitation using organic solvent containing internal standard, and analyzed by LC-MS/MS. Compound remaining was quantified based on the ratio of analyte to internal standard, and the half-life (t1/2) was calculated from a log linear plot of % remaining versus time.

Mouse plasma stability = format: in vitro ADME, CD-1 mice; conditions: 5 μM, 37 °C
Protocol: as §1

EcPBP3 [1] = target: T1, EcPBP3 (Escherichia coli, UniProt P0AD68); assay: Fluorescence polarisation competition assay with fluorescent Bicycle tracer (tracer 1 / BCY12820); format: binding; conditions: protein 9.4 nM sets sensitivity limit, top concentration 5 µM, read-out: Ki (nM) by fluorescence polarisation with tracer 1 (BCY12820 as tracer), Geometric mean (Lower 95% CI; Upper 95% CI, n=number of values)
T1 construct: For assays, selections and SPR a construct with residues 60–588 which has the N-terminal domain, but not the transmembrane helix, was used; made in house
Protocol: Competition fluorescence polarisation assays were run by observing the fluorescence polarisation of a fluorescent “tracer” Bicycle molecule which competes against an unlabelled peptide for binding to the EcPBP3 target. 10 µL of protein (9.4 nM) was mixed with either 5 µL of peptide or 5 µL of buffer and then the assay was initiated by the addition of 10 µL of tracer (1 nM) (final volume 25 µL), in a black 384 low bind, low volume plate (Corning). The buffer was 10 mM HEPES (Sigma), 2% (v/v) glycerol (Sigma), 300 mM NaCl (Sigma), adjusted to pH 8. The plate was incubated for 1 h at 25 °C and then read in a PHERAstar FS (BMG) using with an “FP 485 520 520” optic module (excitation 485 nm, emission 520 nm). The gain was determined immediately prior to the read on a tracer-only well.
Dotmatics (Dotmatics) workflows performing the above calculations were used to process the data. Values quoted are the geometric means of at least 2 repeats.

EcPBP3 [2] = target: T1, EcPBP3; assay: SPR binding assay on immobilised EcPBP3; conditions: 37 °C, kinetic fitting; NB = no binding at 2500 nM (Tables S-4, S-5) or 5000 nM (Table 1); read-out: Kd (nM) by SPR (geomean)
Protocol: Surface plasmon resonance (SPR) assays were performed using EcPBP3 immobilized on CM5 sensor chips (GE Healthcare) via amine-coupling chemistry in assay buffer (10 mM HEPES pH 8.0, 200 mM NaCl, 0.05% (v/v) surfactant P20). The chip surface was activated by injection (10 μL min^–1) of 0.4 M EDC and 0.1 M NHS (in a 1:1 ratio) with a 7 min contact time. Protein was diluted to 25 μg mL^–1 in 10 mM MOPS (pH 7.0) and injected over the activated sensor chip surface to reach immobilization of 1500-2500 response units. Excess hydroxysuccinimidyl groups on the chip surface were deactivated by injection (10 μL min^–1) of 1 M ethanolamine hydrochloride pH 8.0 with a 7 min contact time. Reference flow cells were prepared as described, but without ligand (EcPBP3 protein).
Binding analysis runs were performed at 37 °C in running buffer (10 mM HEPES pH 8.0, 200 mM NaCl, 0.05% (w/v) Tween-20, 2% (v/v) DMSO). […]
Raw sensorgrams data were solvent-corrected, reference-subtracted and blank-buffer-subtracted (double-referencing) before kinetic and affinity analysis to account for non-specific binding and injection artifacts. Equilibrium dissociation constant (Kd) values was determined using the Biacore™ Insight Evaluation Software (version 4.0.8 or version 5.0.17) using kinetic fitting. […]

human blood = assay: Haemolysis assay; format: cell-based; conditions: human whole blood, 37 °C, 10 min
Protocol: Haemolysis assays were performed using human blood from healthy volunteers, with K2-EDTA as the anticoagulant. Blood was preincubated at 37 °C for 15 min with orbital shaking at 60 rpm. In a 96-deep well plate, 4 μL compound at 100x final concentration was prepared, to which 200 μL whole blood and either 200 μL phosphate-buffered saline (PBS) (test and negative control wells) or 200 μL 2% (w/v) saponin in PBS (positive control wells) was added. Plates were incubated at 37 °C for 10 min with orbital shaking at 60 rpm, and then centrifuged at 500 x g for 5 min at room temperature. 50 μL of supernatant was diluted 1:1 with PBS in a 96 well flat-bottom plate, and absorbance at A540nm was read with a SpectraMax plate reader. Absorbance values were normalised to the mean value for wells with 1% (w/v) saponin, to give a percentage haemolysis readout. Data are representative of 3 technical replicates.

| Substance | Blood stability (t1/2) (Mouse blood stability) | Plasma stability (t1/2) (Mouse plasma stability) | Ki (EcPBP3 [1]) | Kd (EcPBP3 [2]) | Haemolysis (human blood) |
| --- | --- | --- | --- | --- | --- |
| ACSFPKCPWVEGCA* [Conjugate 2] | 6.9 h | 5.7 h | 27.7 nM | 0.525 nM | >100 µM |
| ACSFP[HArg]CP[6ClTrp]VEGCA* [Conjugate 4] | 8.8 h |  |  |  |  |
| [-Ac]ACSFP[HArg]CP[6ClTrp]VEGCA* [Conjugate 5] | 19.9 h |  |  |  |  |
| [-Ac]CSFP[HArg]CPWVEGCA* [Conjugate 7] | 2.8 h |  |  |  |  |
| [-Ac]CSFP[HArg]CP[6ClTrp]VEGCA* [Conjugate 6] | 4.4 h |  |  |  |  |
